Source: patent publication US20150158931A1, “CYSTEINE PROTEASE CAPTURING AGENTS” (Stichting Het Nederlands Kanker Instituut, priority 2012, published 2015)

Target: T1, Recombinant UCH-L3 (Homo sapiens (Human)) (UniProt P15374)
T1 sequence: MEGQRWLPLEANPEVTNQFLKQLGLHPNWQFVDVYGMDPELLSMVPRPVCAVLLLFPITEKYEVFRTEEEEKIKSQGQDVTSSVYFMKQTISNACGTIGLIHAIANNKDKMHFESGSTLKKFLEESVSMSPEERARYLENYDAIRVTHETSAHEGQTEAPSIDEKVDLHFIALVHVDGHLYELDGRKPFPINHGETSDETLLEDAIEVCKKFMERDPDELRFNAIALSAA
Assay: titration of Ub-Prg against UCH-L3

stoichiometry of the reaction (Ub-Prg per UCH-L3 (1:1)): 1
Substance: Ubiquitin75-propargylamide (other; C-terminal propargylamide (propargylamine in place of the C-terminal glycine 76); other documents disagree on this pair)
